Experimental findings from patent US8158621B2 are described below.

Molecules are shown by their SMILES.

In this test the test system is Human Jurkat T-cells (clone N). Nature of the test: Jurkat T-cell activation (anti-TCR, CD69 upregulation). Format: cell-based. The conditions noted are these: read-out: Jurkat CD69 IC50.

For `CNC(=O)COc1cccc(Nc2ncc(F)c(Nc3ccc4c(c3)NC(=O)C(C)O4)n2)c1` (stereo not shown), the IC50 worked out at 348 nM.
